In PubChem BioAssay (NCI):
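96-well plates; 48 h exposure; 5 concentrations. Endpoints by linear interpolation between flanking doses. Not reached: highest tested concentration assigned. Here, GI50 denotes the concentration required for 50% inhibition of growth. TGI marks complete inhibition of growth.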

What was measured:
Assay in all cases: DTP human tumour cell line panel, 48 h
SR leukemia = test system: SR leukemia
U251 CNS = test system: U251 CNS
SK-MEL-2 melanoma = test system: SK-MEL-2 melanoma
OVCAR-5 ovarian = test system: OVCAR-5 ovarian
HCT-116 colon = test system: HCT-116 colon
MOLT-4 leukemia = test system: MOLT-4 leukemia
DMS 273 small cell lung = test system: DMS 273 small cell lung
HCC-2998 colon = test system: HCC-2998 colon
SK-MEL-5 melanoma = test system: SK-MEL-5 melanoma
SF-539 CNS = test system: SF-539 CNS
DLD-1 colon = test system: DLD-1 colon
KM12 colon = test system: KM12 colon
UACC-257 melanoma = test system: UACC-257 melanoma
ACHN renal = test system: ACHN renal
M14 melanoma = test system: M14 melanoma
UACC-62 melanoma = test system: UACC-62 melanoma
A498 renal = test system: A498 renal
MALME-3M melanoma = test system: MALME-3M melanoma
RXF 393 renal = test system: RXF 393 renal
NCI-H322M lung = test system: NCI-H322M lung
LXFL 529 NSCLC = test system: LXFL 529 NSCLC
NCI-H226 lung = test system: NCI-H226 lung
SF-268 CNS = test system: SF-268 CNS
CAKI-1 renal = test system: CAKI-1 renal
SK-OV-3 ovarian = test system: SK-OV-3 ovarian
OVCAR-8 ovarian = test system: OVCAR-8 ovarian
RXF-631 renal = test system: RXF-631 renal
SK-MEL-28 melanoma = test system: SK-MEL-28 melanoma
OVCAR-4 ovarian = test system: OVCAR-4 ovarian
NCI-H460 lung = test system: NCI-H460 lung
OVCAR-3 ovarian = test system: OVCAR-3 ovarian
LOX IMVI melanoma = test system: LOX IMVI melanoma
SN12C renal = test system: SN12C renal
A549 NSCLC = test system: A549 NSCLC
786-0 renal = test system: 786-0 renal
SNB-19 CNS = test system: SNB-19 CNS
KM20L2 colon = test system: KM20L2 colon
SNB-78 CNS = test system: SNB-78 CNS
COLO 205 colon = test system: COLO 205 colon
IGROV1 ovarian = test system: IGROV1 ovarian
TK-10 renal = test system: TK-10 renal
DMS 114 small cell lung = test system: DMS 114 small cell lung
HL-60(TB) leukemia = test system: HL-60(TB) leukemia
SW-620 colon = test system: SW-620 colon
NCI-H522 lung = test system: NCI-H522 lung
HT29 colon = test system: HT29 colon
HOP-62 NSCLC = test system: HOP-62 NSCLC
M19-MEL melanoma = test system: M19-MEL melanoma
NCI-H23 lung = test system: NCI-H23 lung
UO-31 renal = test system: UO-31 renal
SNB-75 CNS = test system: SNB-75 CNS
EKVX NSCLC = test system: EKVX NSCLC
HOP-92 NSCLC = test system: HOP-92 NSCLC
RPMI-8226 leukemia = test system: RPMI-8226 leukemia
SF-295 CNS = test system: SF-295 CNS

## CC1=CC2OC3CC4OC(=O)/C=C/C=C/C(C(C)O)OCCC(C)C(O)C(=O)OCC2(CC1O)C4(C)C31CO1 (stereo not given)
SR leukemia
  GI50: < 5 nM
  TGI: 6.53 nM
U251 CNS
  GI50: < 5 nM
  TGI: 67.6 nM
SK-MEL-2 melanoma
  GI50: < 5 nM
  TGI: 13.4 nM
OVCAR-5 ovarian
  GI50: 9.36 nM
  TGI: 27.7 nM
HCT-116 colon
  GI50: < 5 nM
  TGI: 7.62 nM
MOLT-4 leukemia
  GI50: < 5 nM
  TGI: 8.64 nM
DMS 273 small cell lung
  GI50: < 5 nM
  TGI: 11.9 nM
HCC-2998 colon
  GI50: < 5 nM
  TGI: 6.79 nM
SK-MEL-5 melanoma
  GI50: < 5 nM
  TGI: < 5 nM
SF-539 CNS
  GI50: < 5 nM
  TGI: 17.8 nM
DLD-1 colon
  GI50: < 5 nM
  TGI: 15.9 nM
KM12 colon
  GI50: < 5 nM
  TGI: 14.7 nM
UACC-257 melanoma
  GI50: 8.07 nM
  TGI: 17.5 nM
ACHN renal
  GI50: 14.8 nM
  TGI: 69.8 nM
M14 melanoma
  GI50: 5.47 nM
  TGI: 11.9 nM
UACC-62 melanoma
  GI50: 8.12 nM
  TGI: 17.3 nM
A498 renal
  GI50: 8.25 nM
  TGI: 16.1 nM
MALME-3M melanoma
  GI50: < 5 nM
  TGI: 5.61 nM
RXF 393 renal
  GI50: 6.89 nM
  TGI: 14.3 nM
NCI-H322M lung
  GI50: 22.2 nM
  TGI: 169 nM
LXFL 529 NSCLC
  GI50: < 5 nM
  TGI: < 5 nM
NCI-H226 lung
  GI50: < 5 nM
  TGI: < 5 nM
SF-268 CNS
  GI50: 11.1 nM
  TGI: 33.4 nM
CAKI-1 renal
  GI50: 10.8 nM
  TGI: 54.4 nM
SK-OV-3 ovarian
  GI50: 12.5 nM
  TGI: 41.5 nM
OVCAR-8 ovarian
  GI50: 11.2 nM
  TGI: 32.2 nM
RXF-631 renal
  GI50: 11.8 nM
  TGI: 32.7 nM
SK-MEL-28 melanoma
  GI50: < 5 nM
  TGI: 9.44 nM
OVCAR-4 ovarian
  GI50: 5.45 nM
  TGI: 16.3 nM
NCI-H460 lung
  GI50: < 5 nM
  TGI: 12.5 nM
OVCAR-3 ovarian
  GI50: < 5 nM
  TGI: 23.5 nM
LOX IMVI melanoma
  GI50: < 5 nM
  TGI: 6.23 nM
SN12C renal
  GI50: 23.7 nM
  TGI: 2220 nM
A549 NSCLC
  GI50: 16.8 nM
  TGI: 129 nM
786-0 renal
  GI50: 9.62 nM
  TGI: 34.1 nM
SNB-19 CNS
  GI50: < 5 nM
  TGI: 26.7 nM
KM20L2 colon
  GI50: 11 nM
  TGI: 32.8 nM
SNB-78 CNS
  GI50: 11.1 nM
  TGI: 46.9 nM
COLO 205 colon
  GI50: 8.57 nM
  TGI: 16.9 nM
IGROV1 ovarian
  GI50: < 5 nM
  TGI: 30.1 nM
TK-10 renal
  GI50: 8.1 nM
  TGI: 24.6 nM
DMS 114 small cell lung
  GI50: < 5 nM
  TGI: < 5 nM
HL-60(TB) leukemia
  GI50: < 5 nM
  TGI: 50000 nM
SW-620 colon
  GI50: 9.94 nM
  TGI: 50.7 nM
NCI-H522 lung
  GI50: < 5 nM
  TGI: < 5 nM
HT29 colon
  GI50: 8.29 nM
  TGI: 27.7 nM
HOP-62 NSCLC
  GI50: 5.61 nM
  TGI: 22.6 nM
M19-MEL melanoma
  GI50: < 5 nM
  TGI: 8 nM
NCI-H23 lung
  GI50: 6.88 nM
  TGI: 15.5 nM
UO-31 renal
  GI50: 61.7 nM
  TGI: 168 nM
SNB-75 CNS
  GI50: 7.6 nM
  TGI: 17.2 nM
EKVX NSCLC
  GI50: 12.9 nM
  TGI: 40.1 nM
HOP-92 NSCLC
  GI50: 5.86 nM
  TGI: 20.6 nM
RPMI-8226 leukemia
  GI50: < 5 nM
  TGI: 7.15 nM
SF-295 CNS
  GI50: 13.8 nM
  TGI: 49.8 nM
